Experimental data taken from paper PMC13429874, “ABHD2 activity is not required for the non-genomic action of progesterone on human sperm” (Human Reproduction (Oxford, England), 2026).

Sequences of proteins named here, by UniProt entry; tags and fusion partners are left off.
UniProt P08910, whole entry: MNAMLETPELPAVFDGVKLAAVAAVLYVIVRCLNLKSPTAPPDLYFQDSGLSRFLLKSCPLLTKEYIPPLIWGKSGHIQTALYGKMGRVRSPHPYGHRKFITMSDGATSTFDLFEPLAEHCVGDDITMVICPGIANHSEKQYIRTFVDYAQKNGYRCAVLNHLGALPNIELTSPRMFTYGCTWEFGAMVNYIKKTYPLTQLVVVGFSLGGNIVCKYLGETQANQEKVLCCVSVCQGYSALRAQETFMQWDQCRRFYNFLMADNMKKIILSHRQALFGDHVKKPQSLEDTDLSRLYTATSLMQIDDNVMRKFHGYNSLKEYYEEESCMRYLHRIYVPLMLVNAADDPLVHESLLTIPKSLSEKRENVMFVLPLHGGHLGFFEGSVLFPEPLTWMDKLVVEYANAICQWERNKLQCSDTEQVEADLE

Target: full-length human ABHD2 (ABHD2^FL) (Homo sapiens, UniProt P08910)
Assay: ABHD2^FL enzymatic activity assay with 7-HCA substrate
Format: biochemical
Settings: read-out: IC50 measured in ABHD2^FL in the 7-HCA Assay; Supplementary Table S2

How did the IC50 turn out when `FC(F)(F)Oc1ccc(Oc2ccnc(N3CCC(NC(=S)Nc4cccnc4)CC3)c2Cl)c(Cl)c1` was run?
Its IC50 is greater than 20 µM.
